Here are results for 1 compound from article PMC10724690, “Deciphering specificity and cross-reactivity in tachykinin NK1 and NK2 receptors” (The Journal of Biological Chemistry, 2023).

Protein sequences, listed by entry. Tags and fused reporters are not part of them.
UniProt P21452, whole entry K180L: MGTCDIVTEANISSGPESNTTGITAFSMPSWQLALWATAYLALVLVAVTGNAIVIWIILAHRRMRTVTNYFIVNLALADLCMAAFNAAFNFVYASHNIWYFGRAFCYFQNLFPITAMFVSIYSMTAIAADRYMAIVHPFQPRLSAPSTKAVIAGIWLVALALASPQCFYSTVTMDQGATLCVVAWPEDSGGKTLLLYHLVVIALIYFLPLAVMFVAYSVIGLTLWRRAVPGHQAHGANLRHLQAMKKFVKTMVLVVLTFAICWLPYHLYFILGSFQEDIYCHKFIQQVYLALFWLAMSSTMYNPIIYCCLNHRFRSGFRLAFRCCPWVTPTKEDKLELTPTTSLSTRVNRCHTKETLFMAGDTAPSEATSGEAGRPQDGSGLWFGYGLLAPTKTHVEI
UniProt P21452, whole entry: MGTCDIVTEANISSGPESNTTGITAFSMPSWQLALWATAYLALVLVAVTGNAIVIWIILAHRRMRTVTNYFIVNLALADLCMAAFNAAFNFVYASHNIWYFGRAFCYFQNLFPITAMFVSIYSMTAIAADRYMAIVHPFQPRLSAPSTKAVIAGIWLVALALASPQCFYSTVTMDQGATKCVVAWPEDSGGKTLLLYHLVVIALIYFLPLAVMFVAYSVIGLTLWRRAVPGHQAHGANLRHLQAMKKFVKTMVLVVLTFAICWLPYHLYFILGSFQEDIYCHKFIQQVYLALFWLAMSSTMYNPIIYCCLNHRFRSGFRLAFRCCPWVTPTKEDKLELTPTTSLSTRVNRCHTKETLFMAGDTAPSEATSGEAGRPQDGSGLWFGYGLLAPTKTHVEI

Type in all cases: cell-based
The target in one assay is T1, NK2R-K180L (Homo sapiens, UniProt P21452, K180L).
T1 construct: host or cells: COS7
The assay can be described thus: BRET-based cAMP assay, NK2R-K180L. As to conditions: COS-7, Fig s6 b (SP activation, Figure S5b). The protocol:
(§1) COS7 cells (derived from African green monkey kidney fibroblast and originally bought from ThermoFisher) were maintained in Dulbecco´s Modified Eagle´s Medium 1885 with GlutaMAX supplemented with 10% fetal bovine serum (Sigma-Aldrich), 100 units/ml penicillin and 100 μg/ml streptomycin at 37 °C with 10% CO2. COS7 cells were plated in either clear-, white-, or white with clear bottom 96-well plates that were coated with poly-D-lysine (Sigma-Aldrich) 30 min prior to cell seeding (20.000 cells/well). The following day plates were transiently transfected using calcium precipitation with 200 ng/well DNA in a culture medium with the addition of 100 μM (final concentration) Chloroquine. Transfection was stopped 5 h later with the addition of a fresh maintenance medium.
(§2) The intracellular level of cAMP was monitored in real-time using bioluminescence resonance energy transfer (BRET). […]
(§3) On the day of the assay, white 96-well plates with COS7 cells were washed twice with 100 μl/well HBSS (GIBCO, Life Technologies) and preincubated for 30 min at 37 °C with 85 μl HBSS. […] The BRET signal was calculated as the ratio of emission intensity at 535 nm (citrine) to the emission intensity at 475 nm (luciferase). […]
(§4) All dose-response curves have been calculated using Prism 10 software (GraphPad Software) non-linear regression with four parameters. […]
For orientation: BRET reads energy transfer from a luciferase to a nearby fluorophore.

For assay [1], the target named is T2, NK2R (Homo sapiens, UniProt P21452).
T2 construct: host or cells: COS7
Kind of assay: IP3 (IP accumulation) assay, wildtype NK2R. The procedure: as §1, with “medium. Fig. […] COS7 cells seeded in clear 96-well plates were incubated with 0.5 μCi/ml myo [3H]inositol (PerkinElmer) in 100 μl growth medium over night following the transfection. The subsequent day cells were washed twice with 200 μl/well HBSS (GIBCO, Life Technologies) and pre-incubated for 5 min at 37 °C with 100 μl/well HBSS buffer supplemented with 10 mM LiCl. […] Measurements (scintillation) were recorded on a Microbeta (PerkinElmer) after a 4 h delay and determinations were made in duplicates. All dose-response curves have been calculated using Prism 10 software (GraphPad Software) non-linear regression with four parameters. […]” for “medium.”

In assay [2] the target is T2, NK2R. Kind of assay: BRET-based cAMP assay, wildtype NK2R. The procedure:
as §1, §2, §3, §4

The structures appear in SMILES notation.

Usually Emax stands for the size of the effect at its maximum, as opposed to the concentration needed. As for `CSCC[C@H](NC(=O)[C@H](CC(C)C)NC(=O)CNC(=O)[C@H](Cc1ccccc1)NC(=O)[C@H](Cc1ccccc1)NC(=O)[C@H](CCC(N)=O)NC(=O)[C@H](CCC(N)=O)NC(=O)[C@@H]1CCCN1C(=O)[C@H](CCCCN)NC(=O)[C@@H]1CCCN1C(=O)[C@@H](N)CCCNC(=N)N)C(N)=O` [SP, substance P], the Emax on NK2R-K180L is 10.7%; at NK2R [1] (COS-7, Fig 5a, IP3 assay, NK2R in COS7 cells), 45.2%; on NK2R [1] (COS-7, Fig s6 a (SP activation, Figure S5a), IP3 activation assay, NK2R WT), 100%; at NK2R [2] (COS-7, Fig 5b, NK2R in COS7 cells, read-out: Emax), 24.3%; at NK2R [2] (Fig s6 b (SP activation, Figure S5b), NK2R WT) it was 24,32.
